Data as given in patent US7163946B2 (Ligand Pharmaceuticals Incorporated, priority 2002, dated 2007).

Biological target: T1, hPR (Homo sapiens, UniProt P06401)
T1 sequence (P06401 1-933): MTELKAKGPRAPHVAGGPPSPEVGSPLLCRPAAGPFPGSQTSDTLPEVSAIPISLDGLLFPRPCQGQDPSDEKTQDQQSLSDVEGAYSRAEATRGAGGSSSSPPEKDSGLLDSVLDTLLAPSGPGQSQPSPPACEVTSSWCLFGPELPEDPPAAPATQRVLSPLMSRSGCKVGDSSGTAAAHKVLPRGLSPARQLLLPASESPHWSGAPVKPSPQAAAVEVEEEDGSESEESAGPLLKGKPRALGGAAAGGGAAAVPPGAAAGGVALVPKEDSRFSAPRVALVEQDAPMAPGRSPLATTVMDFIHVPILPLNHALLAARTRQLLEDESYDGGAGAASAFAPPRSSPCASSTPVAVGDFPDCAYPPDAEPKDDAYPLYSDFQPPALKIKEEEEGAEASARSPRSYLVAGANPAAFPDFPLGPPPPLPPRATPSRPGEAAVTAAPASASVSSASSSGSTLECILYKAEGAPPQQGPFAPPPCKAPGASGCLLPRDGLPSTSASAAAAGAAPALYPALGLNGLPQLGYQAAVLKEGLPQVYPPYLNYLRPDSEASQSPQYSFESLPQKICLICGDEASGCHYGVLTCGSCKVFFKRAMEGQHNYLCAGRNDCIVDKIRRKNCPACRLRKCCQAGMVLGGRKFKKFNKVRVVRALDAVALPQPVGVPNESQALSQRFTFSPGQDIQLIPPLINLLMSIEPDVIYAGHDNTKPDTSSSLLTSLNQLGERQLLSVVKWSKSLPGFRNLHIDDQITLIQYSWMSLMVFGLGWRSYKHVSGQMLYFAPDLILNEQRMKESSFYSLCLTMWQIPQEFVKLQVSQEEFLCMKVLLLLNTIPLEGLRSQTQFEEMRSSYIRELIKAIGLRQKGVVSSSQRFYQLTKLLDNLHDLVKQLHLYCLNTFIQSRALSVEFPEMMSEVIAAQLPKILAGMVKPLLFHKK
Experiment: hPR cotransfection assay in CV-1 cells, agonist mode
Format: cell-based
Details: Tables 3 and 4, values without footnote; read-out: hPR agonist potencies (EC50 in nM) in the cotransfection assay

Structure (SMILES): CCCCC1Oc2ccc(OC)cc2-c2ccc3c(c21)C(C)=CC(C)(C)N3 (stereo not shown) [Formula I X=9-OMe Bu, reference compound]
- EC50: 9 nM
